Laboratory results reported in patent publication US9328099B2, “Cyanomethylpyrazole carboxamides as janus kinase inhibitors” (Merck Sharp & Dohme Corp., priority 2011, dated 2016).
Read-outs that look alike come from different tables or passages of the source.

By UniProt entry, the sequences of proteins in these tests, tags left out. Residues count along the entry.
UniProt P23458, 875-1153: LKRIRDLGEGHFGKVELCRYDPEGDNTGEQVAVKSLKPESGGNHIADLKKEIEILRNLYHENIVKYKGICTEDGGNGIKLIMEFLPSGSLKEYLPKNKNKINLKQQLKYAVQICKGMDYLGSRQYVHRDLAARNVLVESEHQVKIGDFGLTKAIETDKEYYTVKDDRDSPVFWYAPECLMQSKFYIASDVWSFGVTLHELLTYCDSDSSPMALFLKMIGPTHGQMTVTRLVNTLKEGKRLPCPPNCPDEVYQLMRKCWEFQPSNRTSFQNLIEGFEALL
UniProt O60674, 849-1124: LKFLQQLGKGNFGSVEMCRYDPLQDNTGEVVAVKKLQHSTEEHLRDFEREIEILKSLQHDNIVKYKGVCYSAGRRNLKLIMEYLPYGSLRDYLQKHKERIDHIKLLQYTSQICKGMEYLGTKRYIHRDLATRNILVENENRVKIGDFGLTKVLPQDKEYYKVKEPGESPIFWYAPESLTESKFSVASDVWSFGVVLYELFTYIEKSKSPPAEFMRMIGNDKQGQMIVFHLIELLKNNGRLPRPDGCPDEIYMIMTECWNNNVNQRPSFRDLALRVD

Tests used:
JAK1 = JAK1 (Homo sapiens (Human), UniProt P23458); assay: Jak Biochemical HTRF Assay, JAK1
Excerpt: (§1) Jak Biochemical HTRF Assay Protocol
(§2) Subsequent reagent additions employed an Agilent Bravo.

JAK2 = JAK2 (Homo sapiens (Human), UniProt O60674); assay: Jak Biochemical HTRF Assay, JAK2
Excerpt: as §1, §2

[1] = HTRF biochemical assay, GST-tagged catalytic domain, top concentration tested […]

## COC(=O)C(C)(C)OC(=O)N1CCC(CC#N)(n2cc(C(N)=O)c(Nc3ccc(F)cc3)n2)CC1 [Example 29-A, 1-Methoxy-2-methyl-1-oxopropan-2-yl4-{4-carbamoyl-3-[(4-fluorophenyl)amino]-1H-pyrazol-1-yl}-4-(cyanomethyl)piperidine-1-carboxylate]
JAK1
  IC50: 1 nM

## N#CCC1(n2cc(C(N)=O)c(Nc3ccc(F)cc3)n2)CCN(C(=O)OC2CCOC2)CC1 (single isomer, unassigned) [Example 50-1, (3S or 3R)-tetrahydrofuran-3-yl 4-{4-carbamoyl-3-[(4-fluorophenyl)amino]-1H-pyrazol-1-yl}-4-(cyanomethyl)piperidine-1-carboxylate]
JAK1; [1]
  IC50: 1 nM

## CC(F)(F)C(=O)N1CC[C@@](CC#N)(n2cc(C(N)=O)c(Nc3ccc(F)nc3)n2)[C@@H](F)C1 (single isomer, unassigned) [Example 43-4, 1-((3R,4R or 3S,4S)-4-(cyanomethyl)-1-(2,2-difluoropropanoyl)-3-fluoropiperidin-4-yl)-3-((6-fluoropyridin-3-yl)amino)-1H-pyrazole-4-carboxamide]
JAK2; [1]
  IC50: 0.1 nM

## N#CCC1(n2cc(C(N)=O)c(Nc3ccc(F)cc3)n2)CCN(C(=O)OC2CCOC2)CC1 (single isomer, unassigned) [Example 50-2, (3S or 3R)-tetrahydrofuran-3-yl4-{4-carbamoyl-3-[(4-fluorophenyl)amino]-1H-pyrazol-1-yl}-4-(cyanomethyl)piperidine-1-carboxylate]
JAK1; [1]
  IC50: 2 nM

## N#CC[C@]1(n2cc(C(N)=O)c(Nc3ccnc(F)c3)n2)CC[C@@H](NS(=O)(=O)c2cccc(F)c2)CC1 [Example 42, cis-1-(1-(Cyanomethyl)-4-(3-fluorophenylsulfonamido)cyclohexyl)-3-((2-fluoropyridin-4-yl)amino)-1H-pyrazole-4-carboxamide]
JAK2; [1]
  IC50: 336 nM

## CC(F)(F)C(=O)N1CC[C@](CC#N)(n2cc(C(N)=O)c(Nc3ccc(F)nc3)n2)[C@@H](F)C1 (single isomer, unassigned) [Example 43-1, 1-((3S,4R or 3R,4S)-4-(cyanomethyl)-1-(2,2-difluoropropanoyl)-3-fluoropiperidin-4-yl)-3-((6-fluoropyridin-3-yl)amino)-1H-pyrazole-4-carboxamide]
JAK2
  IC50: 13 nM

## CC(F)(F)C(=O)N1CC[C@@](CC#N)(n2cc(C(N)=O)c(Nc3ccc(F)nc3)n2)[C@H](F)C1 (single isomer, unassigned) [Example 43-2, 1-((3S,4R or 3R,4S)-4-(cyanomethyl)-1-(2,2-difluoropropanoyl)-3-fluoropiperidin-4-yl)-3-((6-fluoropyridin-3-yl)amino)-1H-pyrazole-4-carboxamide]
JAK2
  IC50: 67 nM

## N#CCC1(n2cc(C(N)=O)c(Nc3ccc(F)cc3)n2)CCN(C(=O)OC2CCOC2)CC1 (stereo not drawn) [Example 30-46, tetrahydrofuran-3-yl 4-{4-carbamoyl-3-[(4-fluorophenyl)amino]-1H-pyrazol-1-yl}-4-(cyanomethyl)piperidine-1-carboxylate]
JAK1; [1]
  IC50: 1 nM

## CC(F)(F)C(=O)N1CC[C@](CC#N)(n2cc(C(N)=O)c(Nc3ccc(F)nc3)n2)[C@H](F)C1 (single isomer, unassigned) [Example 43-3, 1-((3R,4R or 3S,4S)-4-(cyanomethyl)-1-(2,2-difluoropropanoyl)-3-fluoropiperidin-4-yl)-3-((6-fluoropyridin-3-yl)amino)-1H-pyrazole-4-carboxamide]
JAK2; [1]
  IC50: 5 nM
